Drawing on patent US7910622B2, “Modulation of bacterial quorum sensing with synthetic ligands” (Wisconsin Alumni Research Foundation, priority 2007, dated 2011), this text covers IC50 for 1 compound.

Protein sequences, listed by entry. Tags and fused reporters are not part of them. Lines headed by an entry give the natural chain unless they say otherwise; changes in a name come on top.
UniProt P35327: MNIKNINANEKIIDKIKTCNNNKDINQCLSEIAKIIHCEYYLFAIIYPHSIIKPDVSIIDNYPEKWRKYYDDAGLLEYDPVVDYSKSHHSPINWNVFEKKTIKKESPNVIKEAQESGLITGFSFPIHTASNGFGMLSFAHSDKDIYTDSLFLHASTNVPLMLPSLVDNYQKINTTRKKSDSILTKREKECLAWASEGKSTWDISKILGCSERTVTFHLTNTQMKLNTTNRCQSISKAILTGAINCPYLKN

The target in this experiment is T1, LuxR (Aliivibrio fischeri, UniProt P35327).
T1 construct: a Δ-luxI derivative of V. fischeri ES114, in which the native lux operon behaves as the bioluminescent reporter; endogenous in cells; host or cells: V. fischeri ES114 (Δ-luxI)
Nature of the experiment: cell-based. The settings on record: LuxR IC50, determined against 5 μM OHHL. More on the design: species or system Vibrio fischeri. Here is the method:
Luminescence assays. For agonism assays, an appropriate amount of AHL stock solution was added into a 96-well plate. An overnight culture of E. coli or V. fischeri was diluted 1:10 with appropriate media (LB plus 10 μg/mL tetracycline for E. coli; LBS for V. fischeri). A 200-μL portion of the diluted culture was added to each well of the plate. Plates were grown for 4-8 h with shaking (200 rpm; 30° C. for E. coli and RT for V. fischeri). Luminescence was measured using a multilabel plate reader and normalized to cell density. […] All assays were performed in triplicate. Graphpad Prism software was used to calculate IC50 and EC50 values.
Vibrio fischeri assay procedures. […] Luminescence then was measured and normalized to cell density per well. […] IC50 and EC50 values were calculated using GraphPad Prism software using a sigmoidal curve fit.
(§1) V. fischeri reporter gene assay protocols. […] Luminescence then was measured and normalized to cell density per well.
(§2) Dose response reporter gene assays. […] IC50 and EC50 values were calculated using GraphPad Prism software (v. 4.0) using a sigmoidal curve fit.
as §1, §2

Turning to `O=C(Cc1ccc(Br)cc1)N[C@H]1CCOC1=O` [A17, 4-bromo-phenylacetanoyl HL, reference compound], 4.13 µM corresponded to half-maximal inhibition (IC50).
